These are literature values, as cited in publication PMC8538783, “Green Oxidation of Amines by a Novel Cold-Adapted Monoamine Oxidase MAO P3 from Psychrophilic Fungi Pseudogymnoascus sp. P3” (Molecules, 2021).

In this data set the test system is MAO B. The following applies: cited from earlier work.

Turning to deprenyl, the “low concentration that inhibits MAO B” value was 10^−7 M.
